The text below walks through data of ChEMBL document CHEMBL1122933, “Drug glycosides: potential prodrugs for colon-specific drug delivery” (J Med Chem, 1985).

Structures are written as SMILES.

This series in a line: Partition coefficient (logP). Type of series: physicochemical. As to conditions: octanol/water. In outline:
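Apparent 1-octanol/0.01 M phosphate buffer (pH 7.0) partition at 37 °C used mutually pre-saturated phases in equal volumes, agitated 30 min. Glycosides started at 10 mM in buffer and free steroids at 10 mM in octanol. Aqueous-phase concentration was read by UV: 239 nm for dexamethasone and fludrocortisone compounds, 242 nm for prednisolone and hydrocortisone compounds.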

Turning to `CC1CC2C3CCC4=CC(=O)C=CC4(C)[C@@]3(F)C(O)CC2(C)[C@@]1(O)C(=O)CO[C@@H]1O[C@H](CO)[C@@H](O)[C@H](O)[C@H]1O` (some centres not stated), the logP – broadly, a log measure of how a compound divides between an organic and an aqueous phase – came to 0.59.

In the case of `CC1CC2C3CCC4=CC(=O)C=CC4(C)[C@@]3(F)C(O)CC2(C)[C@@]1(O)C(=O)CO[C@@H]1O[C@@H](CO)[C@@H](O)[C@H](O)[C@H]1O` (some centres not stated), the logP was determined as 0.49.
